Data reported in patent publication US11464867B2, “Multimeric elastin-like polypeptides” (University of Southern California, priority 2018, dated 2022).

Assay: Isothermal titration calorimetry (ITC) of CypA-ELP fusions with CsA
Details: read-out: dissociation constant (Kd) to CsA, 25° C.

| Kd [nM] | Substance |
| --- | --- |
| 230 ± 57.8 | CV96: cyclophilin A fused to ELP V96, SEQ ID NO: 4 |
| 343 ± 175 | dimerized CA192: dimeric fraction of CA192 isolated by size exclusion chromatography |
